AlphaSeq binding of Ab-91 heavy chain variants to a spike HR2 peptide

Reference: Engelhart et al. 2022, doi:10.1038/s41597-022-01779-4. File: FLAb, binding data.

Antigen: PDVDLGDISGINAS, a 14-residue peptide of the SARS-CoV-2 spike HR2 region.

Each scFv is VL, a (GGGGS)3 linker, VH, as in the parent Ab-91, and differs from it in the CDRs of the heavy chain only.
VL: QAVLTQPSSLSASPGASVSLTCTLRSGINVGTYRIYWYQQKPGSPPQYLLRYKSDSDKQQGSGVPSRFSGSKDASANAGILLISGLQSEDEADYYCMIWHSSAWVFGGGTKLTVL
VH: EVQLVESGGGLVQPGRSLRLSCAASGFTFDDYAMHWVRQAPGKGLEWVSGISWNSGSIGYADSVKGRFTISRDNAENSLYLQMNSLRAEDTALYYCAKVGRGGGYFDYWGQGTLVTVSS

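Phage display of a naive human antibody library on the peptide gave the parent. The library (AAYL51) carries one to three amino acid substitutions per variant, with no insertions or deletions. The assay is AlphaSeq: two haploid yeast populations carry antibody and antigen on their surface. The frequency of each diploid, read from paired DNA barcodes, reflects how well the two displayed proteins bind. Each replicate has its own calibration line, from reference interactions of the BCL2 family. There are three technical replicates.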

Each variant is given by its three heavy chain CDRs, as the data file delimits them; those of the parent are GFTFDDYAMH, GISWNSGSIGYADSVK, VGRGGGYFDY. Every variant below is changed at G102 of the VH (sequential numbering). Values are apparent Kd, the geometric mean of the replicates that gave a signal; lower means stronger binding. A pair that was not seen in any replicate is written "nd"; this usually means weak binding, but a binder can also be missed. Parent in this assay: reference entry 72 nM, copy in this library 7.5 nM. Nonspecific signal, from three strains lacking the peptide, appeared in 21% of pairings of library AAYL51, centred on 34 µM (5% of these signals below 1.8 µM); values are not corrected for it.

* GFTFDDYAMH / GLSWNSGSIGYADSVK / VGRYGGYFDY: nd (0 of 3 replicates)
* GFTFDDYAMH / GHSWNSGSIGYADSQK / VGRFGGYFDY: nd (0 of 3 replicates)
* GFWFDDYAMH / GISWNSGSIGYADSVK / VGENGGYFDY: 340 nM (3 of 3 replicates)
* GFTFDDYAMH / MISWNSGSIGYADSVK / VGRKVGYFDY: nd (0 of 3 replicates)
* GFTFDDYAMH / GISWESGSIGYADSVK / VGRHGGYFDY: nd (0 of 3 replicates)
* GDTFDDYAMH / GISWNSGSIGYADSVK / VGRNGGVFDY: 20 µM (1 of 3 replicates)
* GFTFWDYQMH / GISWNSGSIGYADSVK / VGRYGGYFDY: 200 µM (2 of 3 replicates)
* FFSFDDYAMH / GISWNSGSIGYADSVK / VGRQGGYFDY: nd (0 of 3 replicates)
* GFTFDDYAMH / MISWNSGSIGYADSVK / VGRSGGYFDY: nd (0 of 3 replicates)
* GFTFDDYAVT / GISWNSGSIGYADSVK / VGRLGGYFDY: nd (0 of 3 replicates)
* GFTFDDYAMH / GISWHSGSITYADSVK / VGRSGGYFDY: nd (0 of 3 replicates)
* GFTFDDYAMH / GISWNSKSIGYADSVK / VGRKGGYFAY: 88 µM (2 of 3 replicates)
* GFTFDDYAMH / GTSWNSGSIGYADSVK / VGRYRGYFDY: 1.9 µM (1 of 3 replicates)
* GFTFDDYAMH / GISWDSGSIGYADSVK / VGRRVGYFDY: 82 µM (1 of 3 replicates)
* GFTFDDYAMH / GISWNIGSIGLADSVK / VGRFGGYFDY: nd (0 of 3 replicates)
* GFTFDDYAKH / GISWNSGSIGYADWVK / VGRKGGYFDY: 85 µM (1 of 3 replicates)
* GFTLDDYAMH / GISWISGSIGYADSVK / VGRYGGYFDY: nd (0 of 3 replicates)
* GFTFDDYCMH / GDSWNSGSIGYADSVK / VGRYGGYFDY: 5.5 µM (2 of 3 replicates)
* GFTFDDYAMH / GISWNSCSIGYADSVK / VGRPGGFFDY: nd (0 of 3 replicates)
* GFTFDDYAMH / GHSWNSGSIGYADSVK / VGGAGGYFDY: 90 µM (3 of 3 replicates)
* GFTFDDYAVH / GISWNSGSIGYADSVK / VGRCPGYFDY: 13 µM (3 of 3 replicates)
* GFTFDSYAMH / GISWNSGSIGYADSVV / VGRWGGYFDY: 210 µM (1 of 3 replicates)
* GFTFDDYAMH / GISWNSGSIGYADSVW / VCRVGGYFDY: 12 µM (1 of 3 replicates)
* GFTFDDYAMP / GISWNSGSPGYADSVK / VGREGGYFDY: 110 µM (1 of 3 replicates)
* GFTFDDYDMH / GISWNSGSIGWADSVK / VGRTGGYFDY: 41 µM (2 of 3 replicates)
* GFTFDDYAMA / GISWNSGSIGYADSVK / VGRAGGYFDQ: nd (0 of 3 replicates)
* GMTFDDYAMH / GISWNSGSIGYADMVK / VGRPGGYFDY: 4.1 µM (1 of 3 replicates)
* GFTFDDFAMH / GISWNSGSIGYADSVK / VERLGGYFDY: 44 µM (2 of 3 replicates)
* GFTFDDYAMH / GISWNSGSIGYRDSVK / VGRAGGDFDY: 3.5 nM (3 of 3 replicates)
* SFTFDDYAMH / GISWNSGSIGYADSVK / VGRYGGYFDY: nd (0 of 3 replicates)
* GFTFDDYAMH / GISWNWGSIGYADSVK / VGRNGGYFAY: nd (0 of 3 replicates)
* GFTFDDYAMH / CISWNSGSIGYADSVF / VGRIGGYFDY: nd (0 of 3 replicates)
* GFTFDDYARH / VISWNSGSIGYADSVK / VGRNGGYFDY: 5.3 µM (1 of 3 replicates)
* GFTFDDYAMH / GISWNSGSIGYADSDK / VQRSGGYFDY: 24 µM (1 of 3 replicates)
* GDWFDDYAMH / GISWNSGSIGYADSVK / VGRAGGYFDY: 11 µM (1 of 3 replicates)
* GFTLDDYAMH / GISWNSGSIGYADSVK / VNRRGGYFDY: 73 µM (3 of 3 replicates)
* GFTFWDYAMC / GISWNSGSIGYADSVK / VGRSGGYFDY: 12 µM (1 of 3 replicates)

Excerpt, the first 6 entries:

- GFTFDDYAMH / GLSWNSGSIGYADSVK / VGRYGGYFDY: nd (0 of 3 replicates)
- GFTFDDYAMH / GHSWNSGSIGYADSQK / VGRFGGYFDY: nd (0 of 3 replicates)
- GFWFDDYAMH / GISWNSGSIGYADSVK / VGENGGYFDY: 340 nM (3 of 3 replicates)
- GFTFDDYAMH / MISWNSGSIGYADSVK / VGRKVGYFDY: nd (0 of 3 replicates)
- GFTFDDYAMH / GISWESGSIGYADSVK / VGRHGGYFDY: nd (0 of 3 replicates)
- GDTFDDYAMH / GISWNSGSIGYADSVK / VGRNGGVFDY: 20 µM (1 of 3 replicates)